Experimental data from patent publication US12060351B2, “Thiadiazole IRAK4 inhibitors” (Gilead Sciences, Inc., priority 2018, dated 2024).

Chains of the proteins cited; added tags and fusions are not shown.
UniProt Q9NWZ3, whole entry: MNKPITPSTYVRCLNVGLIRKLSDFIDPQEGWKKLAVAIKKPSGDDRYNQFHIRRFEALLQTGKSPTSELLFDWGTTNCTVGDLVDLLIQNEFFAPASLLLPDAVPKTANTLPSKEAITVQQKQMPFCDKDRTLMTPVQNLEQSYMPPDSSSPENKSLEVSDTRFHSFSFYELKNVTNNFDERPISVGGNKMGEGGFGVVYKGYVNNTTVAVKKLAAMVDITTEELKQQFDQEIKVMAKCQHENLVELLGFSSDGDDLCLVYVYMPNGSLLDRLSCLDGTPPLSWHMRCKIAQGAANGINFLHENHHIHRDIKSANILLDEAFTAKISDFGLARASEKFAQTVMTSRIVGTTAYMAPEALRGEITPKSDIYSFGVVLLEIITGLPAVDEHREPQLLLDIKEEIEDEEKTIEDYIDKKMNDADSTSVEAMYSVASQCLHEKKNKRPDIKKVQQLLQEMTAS

Columns and labels:
[1] = system: TNFα; assay: IRAK4 Monocyte TNFα Cell Based Assay (LPS-stimulated, TR-FRET TNFα detection); conditions: read-out: EC50 MONO TNF HTRF, human monocytes, Table 2 second part (compounds 33-343)
[2] = target: IRAK4 enzyme (Homo sapiens, UniProt Q9NWZ3); assay: IRAK4 Biochemical Assay (TR-FRET, STK1 KinEASE); conditions: read-out: IC50 IRAK4-HTBS, 500 μM ATP, Table 2 second part (compounds 33-343)

| SMILES | pEC50 [1] | pIC50 [2] |
| --- | --- | --- |
| CC(=O)NC1CCC(F)(c2nnc(-c3cnc(-c4ccc5cc(C#N)cnn45)cc3NC(C)C)s2)CC1 (single isomer, unassigned) [194 Isomer 1] | 7.29 | 9.21 |
| CC(=O)NC1CCC(F)(c2nnc(-c3cnc(-c4ccc5cc(C#N)cnn45)cc3NC(C)C)s2)CC1 (single isomer, unassigned) [194 Isomer 2] | 7.39 | 9.24 |

pEC50, pIC50: −log10 of the molar value.
